Laboratory results: patent US20220274997A1, “PIM KINASE INHIBITOR COMPOSITIONS AND USES THEREOF” (Snap Bio, Inc., priority 2019, published 2022)

The chains behind the UniProt entries cited, without tags or fusion partners.
UniProt P11309, whole entry: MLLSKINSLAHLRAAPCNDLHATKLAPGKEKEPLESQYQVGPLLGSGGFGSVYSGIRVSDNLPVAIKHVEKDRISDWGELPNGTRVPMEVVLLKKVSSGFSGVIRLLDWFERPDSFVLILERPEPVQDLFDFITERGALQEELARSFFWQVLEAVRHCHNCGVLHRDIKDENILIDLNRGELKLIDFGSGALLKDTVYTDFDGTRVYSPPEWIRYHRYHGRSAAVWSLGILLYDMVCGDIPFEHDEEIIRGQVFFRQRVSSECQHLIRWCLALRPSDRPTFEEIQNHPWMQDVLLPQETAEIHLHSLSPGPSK
UniProt Q9P1W9, whole entry: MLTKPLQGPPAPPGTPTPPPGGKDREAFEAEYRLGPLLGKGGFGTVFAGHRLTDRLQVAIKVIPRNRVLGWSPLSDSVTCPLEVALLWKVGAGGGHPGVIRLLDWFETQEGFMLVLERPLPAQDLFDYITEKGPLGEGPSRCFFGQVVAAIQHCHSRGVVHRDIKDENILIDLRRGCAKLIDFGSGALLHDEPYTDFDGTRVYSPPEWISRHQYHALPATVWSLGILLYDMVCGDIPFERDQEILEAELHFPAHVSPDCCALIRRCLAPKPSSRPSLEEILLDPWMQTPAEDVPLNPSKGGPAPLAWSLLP

How the values were obtained:
PIM1 = PIM1 (Homo sapiens, UniProt P11309); assay: LANCE Ultra kinase assay, PIM1; type: biochemical
PIM2 = PIM2 (Homo sapiens, UniProt Q9P1W9); assay: LANCE Ultra kinase assay, PIM2; type: biochemical
PIM3 = PIM3 (Homo sapiens, UniProt Q86V86); assay: LANCE Ultra kinase assay, PIM3; type: biochemical
HepG2 = assay: CellTiter-Glo cancer cell growth inhibition, HepG2; type: cell-based, human; conditions: read-out: EC50 HepG2, 72 hours
Huh7 = assay: CellTiter-Glo cancer cell growth inhibition, Huh7; type: cell-based; conditions: read-out: EC50 Huh7, 72 hours
DU-145 = assay: CellTiter-Glo cancer cell growth inhibition, DU-145; type: cell-based; conditions: read-out: EC50 DU-145, 72 hours
A673 = assay: CellTiter-Glo cancer cell growth inhibition, A673; type: cell-based; conditions: read-out: EC50 A673, 72 hours
[1] = read-out: IC50 PIM1, ATP 0.1 mM
[2] = read-out: IC50 PIM2, ATP 0.1 mM
[3] = read-out: IC50 PIM3, ATP 0.1 mM

Row | SMILES | IC50 (PIM1; [1]) [nM] | IC50 (PIM1; read-out: IC50 PIM1, ATP 1 mM) [nM] | IC50 (PIM2; [2]) [nM] | IC50 (PIM2; read-out: IC50 PIM2, ATP 1 mM) [nM] | IC50 (PIM3; [3]) [nM] | IC50 (PIM3; read-out: IC50 PIM3, ATP 1 mM) [nM] | EC50 (HepG2) [nM] | EC50 (Huh7) [nM] | EC50 (DU-145) [nM] | EC50 (A673) [nM]
1 | O=C1NC(=O)c2c1c1c3cc(F)c(O)cc3[nH]c1c1c2c2ccncc2n1CCN1CCOCC1 | 0.32 | 0.33 | 5 | 0.23 | 0.21 | 2.15 | 25 | 14 | 13 | 6.2
2 | O=C1NC(=O)c2c1c1c3ccncc3[nH]c1c1c2c2cc(F)c(O)cc2n1CCN1CCOCC1 | 0.23 | 0.26 | 39 | 0.24 | 0.21 | 1.34 | 85 | 50 | 11 | 

Like-named read-outs stand apart in the source and are kept apart here.
